Compound activity from PubChem.
dFosB act: mouse delta FosB homodimer activation | hit rate 0.99% among 340,000 | P13346 | purified delta FosB, TAMRA-CDK5 oligo fluorescence polarization; percent of positive-control signal above neutral wells | activation, % at 25 µM;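 active = mean activation above about 17%, with every replicate also reaching it, limit read from the data, passing the limit was not always enough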
UUG fidelity: yeast start codon fidelity modulation; activity score, % at 18.7 µM; actives 0.13% (n = 350,000); S. cerevisiae UUG-firefly luciferase reporter, luminescence/redox ratio; AID 602363;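 active means replicate mean at a twofold rise or more, about +100% in these data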;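 further: firefly luciferase made from a UUG start codon reports start codon fidelity; reporter light over untreated wells divided by growth signal over untreated wells; some hits fall short of that in this replicate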
DYRK1A inh: Dyrk1A (rat) kinase inhibition. hit rate 0.43% among 310,000. AID 504441. Q63470. ADP-Glo luminescence, NFATc1 peptide. inhibition, % at 12.5 µM; in the data active = inhibition above about 50%;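 note: plate controls were vehicle with enzyme for no effect and no enzyme for full effect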
CAL PDZ FP-1: inhibitors of human CAL PDZ peptide binding; Q9HD26; purified CAL PDZ, TMR-peptide fluorescence polarization, 1 h; inhibition, % at 20 µM; hit rate 0.02% among 330,000; AID 504414;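 active = highest replicate inhibition of at least 40%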;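 note: plate controls were DMSO neutral control wells for no effect and unlabeled competitor peptide control wells for full effect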
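Test system: tagged CAL PDZ domain / Buffer or medium: sodium phosphate/NaCl buffer pH 7.4 with TCEP, IgG, Thesit / Reagent: TMR-labelled reporter peptide T*-PRC34 bound in PDZ groove / Compound dosing: single point, 20 µM / Schedule: 1 h incubation at room temperature before polarization reading / Technique: fluorescence polarization (mP) / Benchmarks: unlabelled peptide, DMSO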
CAL PDZ FP-2: blocks peptide binding to the human CAL PDZ domain | Q9HD26 | purified CAL PDZ, TMR-peptide fluorescence polarization, 1 h | inhibition, % at 24.9 µM | hit rate 0.92% among 300,000 | AID 602252;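 active = mean inhibition of at least 30% with at least half of replicates also reaching 30%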;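 note: 0% = DMSO neutral control and 100% = excess unlabeled competitor peptide PRC23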
CDK5 p35 inh: blocks human CDK5/p35 kinase activity | Q00535+Q15078 | hit rate 0.01% among 330,000 | AID 488839 | Recombinant CDK5/p35, ADP-Glo luminescence, 60 min | inhibition, % at 10 µM;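 active = highest replicate inhibition of at least 50% and at least 75% of replicates reaching 50%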;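 note: plate controls were DMSO neutral control for no effect and GW8510 at 10 µM for full effect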
ADP-Glo artifact: ADP-Glo luciferase interference, Dyrk1A counter-screen; AID 588348; ADP-Glo luciferase artifact assay, no Dyrk1A, luminescence; shares compounds with DYRK1A inh; AC50, µM (highest dose often 12 µM), inactives show at the highest dose activity change, negative = inhibition; 1,300 tested, under 10 active;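 active = fitted half-maximal dose AC50 no more than ten times the top valid tested dose, with luminescence dropping as dose rises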
* marks the source's active call; other numbers are inactive results; . = no result given. Most compounds without a hit are left out; they make up all but 1.7% or so of the library.

1	O=C1c2c(O)ccc(O)c2C(=O)c2c(NCCNCCO)ccc(NCCNCCO)c21
2	COc1cccc(NC(=O)N(C)C[C@@H]2Oc3ncc(C#Cc4ccc(F)cc4)cc3C(=O)N([C@H](C)CO)C[C@H]2C)c1
3	COc1cc2ncnc(NCc3cccs3)c2cc1OC
4	c1csc(CNc2ncnc3ccc(-c4ccoc4)cc23)c1
5	O=c1c2ccccc2nnn1CSc1nnc(-c2ccc3c(c2)OCO3)o1
6	CCC(=O)Nc1cccc(-c2cn3ccccc3n2)c1
7	CC(=O)Nc1cccc(-c2nn[nH]n2)c1
8	O=C(COc1ccccc1)Nc1cccc(-c2nn[nH]n2)c1
assay / compound | 1 | 2 | 3 | 4 | 5 | 6 | 7 | 8
ADP-Glo artifact | 3% | . | . | 10% | 8% | . | . | 7%
CAL PDZ FP-2 | -4 | . | -1 | -4 | . | -5 | -2 | 2
dFosB act | -276 | . | -1 | -13 | -1 | -11 | -3 | -2
CAL PDZ FP-1 | 5 | . | -4 | -5 | 0 | -3 | -2 | 1
DYRK1A inh | 52* | . | -1 | 74* | 56* | 3 | 42 | 70*
CDK5 p35 inh | 1 | . | -3 | 9 | 0 | -1 | 0 | 4
UUG fidelity | -6 | 1 | . | -6 | -24 | . | -16 | -16

9	O=C(COc1ccccc1)Nc1cccc(-c2cn3cccnc3n2)c1
10	CCOC(=O)C1=C(C)OC(N)=C(C#N)C1c1ccc(O)c(OC)c1 (configuration not stated)
11	Cc1ccccc1NC(=O)C1CCCN1S(=O)(=O)c1ccc2c(c1)n(C)c(=O)c(=O)n2C (configuration not stated)
12	CCOC(=O)c1nnc(-c2ccc(C)cc2)nc1Sc1ccc(Cl)cc1
13	CCOC(=O)c1nnc(-c2ccc(C)cc2)nc1Sc1ccccc1Cl
14	CCN1CCN(c2nc(Nc3ccccc3)nc(N)c2[N+](=O)[O-])CC1
15	CCN1CCN(c2nc(Nc3cccc(C)c3)nc(N)c2[N+](=O)[O-])CC1
16	O=C1NC(=O)C(=Cc2ccccc2[N+](=O)[O-])S1
assay / compound | 9 | 10 | 11 | 12 | 13 | 14 | 15 | 16
ADP-Glo artifact | 8% | 11% | 6% | 6% | . | . | 8% | .
CAL PDZ FP-2 | -3 | 3 | . | 1 | 1 | -3 | 1 | 1
dFosB act | -24 | -7 | -3 | 11 | -1 | -4 | 9 | -5
CAL PDZ FP-1 | -5 | -2 | -2 | -1 | 0 | -1 | -1 | 0
DYRK1A inh | 54* | 51* | 58* | 55* | 4 | -2 | 60* | 33
CDK5 p35 inh | 1 | 1 | 0 | 1 | 1 | -1 | 5 | 0
UUG fidelity | -25 | 1 | 2 | -19 | -12 | . | -10 | -26

17	O=C1NC(=S)/C(=C\c2ccc(-c3ccccc3Cl)o2)S1
18	O=C1NC(=O)/C(=C\c2ccc(Br)o2)S1
19	O=C1NC(=O)/C(=C/c2ccc(-c3cc(C(=O)O)ccc3Cl)o2)S1
20	C[C@H](CO)N1C[C@H](C)[C@H](CN(C)C(=O)Cc2ccncc2)Oc2cc(C#CC3CCCCC3)ccc2S1(=O)=O
21	N#CC(C#N)=C1NC(N)=C(C#N)C(c2ccccc2)=C1C#N
22	COc1ccc(NC(=O)N[C@@H]2CC[C@H](CCNC(=O)Cc3ccncc3)O[C@H]2CO)cc1
23	Cc1cc2c(ccc3[nH]onc32)n1
24	Clc1ccc(-c2nnc3sc(Cc4cccs4)nn23)cc1
assay / compound | 17 | 18 | 19 | 20 | 21 | 22 | 23 | 24
ADP-Glo artifact | . | 13% | 10% | . | 8% | . | 8% | .
CAL PDZ FP-2 | -2 | -6 | -9 | . | -3 | . | -2 | -2
dFosB act | 4 | -6 | -18 | . | -2 | . | -7 | -7
CAL PDZ FP-1 | 1 | -1 | -4 | . | -2 | . | 0 | -3
DYRK1A inh | 3 | 66* | 61* | . | 66* | . | 51* | 12
CDK5 p35 inh | -1 | -1 | -2 | . | 0 | . | 3 | 0
UUG fidelity | . | -14 | -2 | -4 | . | -6 | -18 | -18

25	c1ccc(-c2nnc3sc(Cc4cccs4)nn23)cc1
26	C[C@@H]1CCCCO[C@@H](CN(C)C(=O)Nc2ccc(F)cc2)[C@H](C)CN([C@H](C)CO)C(=O)c2cc(NC(=O)Nc3ccccc3)ccc2O1
27	CC(C)C(=O)Nc1ccc2c(c1)C(=O)N(C)[C@H]1CC[C@@H](CC(=O)NCc3cccc(F)c3)O[C@@H]1CO2
28	CCc1ccc(C(=O)Nc2cccc(-c3nn[nH]n3)c2)s1
29	CCCc1cc(C(=O)Nc2cccc(-c3nn[nH]n3)c2)sc1C
30	O=C(Nc1cccc(-c2nn[nH]n2)c1)c1csc2c1CCCC2
31	COc1ccc(NC(=O)N(C)C[C@H]2Oc3c(NC(=O)c4cnccn4)cccc3C(=O)N([C@@H](C)CO)C[C@H]2C)cc1
32	Cc1ccccc1-c1cnc2c(c1)C(=O)N([C@@H](C)CO)C[C@@H](C)[C@H](CN(C)Cc1cncnc1)O2
assay / compound | 25 | 26 | 27 | 28 | 29 | 30 | 31 | 32
ADP-Glo artifact | 10% | . | . | 10% | . | 7% | . | .
CAL PDZ FP-2 | -17 | . | . | -6 | . | 6 | . | .
dFosB act | -13 | . | . | -5 | . | -12 | . | .
CAL PDZ FP-1 | -2 | . | . | -3 | . | -2 | . | .
DYRK1A inh | 59* | . | . | 83* | . | 56* | . | .
CDK5 p35 inh | 1 | . | . | 0 | . | -4 | . | .
UUG fidelity | -30 | 3 | -1 | -15 | -6 | -20 | 3 | 16

33	COC(=O)C[C@H]1CC[C@@H]2[C@H](COc3ccc(NC(=O)Nc4cccc(C)c4)cc3C(=O)N2C)O1
34	COc1ccc(/C=C(/C(=O)c2cccs2)N2C=CC=CC2=C(C#N)C#N)cc1
35	COc1ccc(C(=O)/C(=C\c2ccco2)N2C=CC=CC2=C(C#N)C#N)cc1
36	Cc1cccc(NC(=O)C2NC(=O)CC2c2ccccc2)c1C (configuration not stated)
37	Cc1cccc(C)c1NC(=O)C1NC(=O)CC1c1ccccc1 (configuration not stated)
38	NS(=O)(=O)c1ccc(Nc2nc(-c3ccc(F)cc3)cs2)cc1
39	NS(=O)(=O)c1ccc(Nc2nc(-c3ccc(O)cc3O)cs2)cc1
40	C[C@H]1CN([C@@H](C)CO)C(=O)c2cccc(NC(=O)Nc3cccc4ccccc34)c2O[C@H]1CN(C)S(=O)(=O)c1cn(C)cn1
assay / compound | 33 | 34 | 35 | 36 | 37 | 38 | 39 | 40
ADP-Glo artifact | . | 8% | . | 2% | . | . | 7% | .
CAL PDZ FP-2 | . | 0 | -9 | . | . | 1 | -4 | .
dFosB act | . | -4 | -8 | 1 | -4 | -1 | -9 | .
CAL PDZ FP-1 | . | -1 | -1 | 0 | 0 | 1 | -1 | .
DYRK1A inh | . | 64* | 47 | 59* | 9 | 21 | 68* | .
CDK5 p35 inh | . | 0 | -1 | 0 | 0 | 1 | 16 | .
UUG fidelity | 7 | . | -17 | -23 | -22 | -7 | . | 7

41	Cc1ccc(-c2nn[nH]n2)cc1Cl
42	CCC1COCCS(=O)(=O)N1Cc1cccc(Cl)c1 (configuration not stated)
43	CC(C)C[C@H]1COCCS(=O)(=O)N1Cc1ccc(Cl)c(Cl)c1
44	COc1ccc(CN(C)C[C@@H]2Oc3ccc(NC(=O)Nc4c(C)noc4C)cc3C(=O)N([C@@H](C)CO)C[C@@H]2C)cc1
45	c1ccc2c(-c3nc(C4CCCCC4)no3)cc(-c3ccncc3)nc2c1
46	COc1ccc(-c2nc(N)ncc2-c2ccccc2OC)c(O)c1
47	O=C1NCCc2c1[nH]c1ccccc21
assay / compound | 41 | 42 | 43 | 44 | 45 | 46 | 47
ADP-Glo artifact | 8% | . | 8% | . | 8% | 7% | .
CAL PDZ FP-2 | 4 | -2 | -5 | . | . | -8 | 0
dFosB act | -11 | 0 | 0 | . | -4 | -5 | 1
CAL PDZ FP-1 | -2 | 0 | -1 | . | -3 | 0 | 0
DYRK1A inh | 53* | 0 | 51* | . | 72* | 51* | 23
CDK5 p35 inh | -1 | 0 | 0 | . | 0 | -3 | 0
UUG fidelity | -20 | -20 | -8 | -13 | -29 | 13 | .

An excerpt of these results, with bars between the fields:
nr | Molecule | ADP-Glo artifact | CAL PDZ FP-2 | dFosB act | CAL PDZ FP-1 | DYRK1A inh | CDK5 p35 inh | UUG fidelity
45 | c1ccc2c(-c3nc(C4CCCCC4)no3)cc(-c3ccncc3)nc2c1 | 8% | . | -4 | -3 | 72* | 0 | -29
42 | CCC1COCCS(=O)(=O)N1Cc1cccc(Cl)c1 (configuration not stated) | . | -2 | 0 | 0 | 0 | 0 | -20
44 | COc1ccc(CN(C)C[C@@H]2Oc3ccc(NC(=O)Nc4c(C)noc4C)cc3C(=O)N([C@@H](C)CO)C[C@@H]2C)cc1 | . | . | . | . | . | . | -13
43 | CC(C)C[C@H]1COCCS(=O)(=O)N1Cc1ccc(Cl)c(Cl)c1 | 8% | -5 | 0 | -1 | 51* | 0 | -8
